Values of other authors as cited in patent US4384994A, “Renin inhibitory peptides” (Merck & Co., Inc., priority 1981, dated 1983).

By UniProt entry, the sequences of proteins in these tests, tags left out. Residues count along the entry.
UniProt P07339, 65-412, species assumed: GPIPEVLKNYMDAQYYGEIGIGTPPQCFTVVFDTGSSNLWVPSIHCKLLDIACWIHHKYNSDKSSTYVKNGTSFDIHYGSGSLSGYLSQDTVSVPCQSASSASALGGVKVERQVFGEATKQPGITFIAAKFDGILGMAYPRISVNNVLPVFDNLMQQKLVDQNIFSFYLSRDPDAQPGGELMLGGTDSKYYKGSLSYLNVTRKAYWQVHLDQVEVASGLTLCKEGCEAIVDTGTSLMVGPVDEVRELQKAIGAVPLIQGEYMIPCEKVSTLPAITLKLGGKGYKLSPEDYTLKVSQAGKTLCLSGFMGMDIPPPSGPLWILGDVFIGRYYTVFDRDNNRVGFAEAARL

Molecular target: cathepsin D (Homo sapiens, UniProt P07339)
Conditions: Umezawa et al. 1970

- inhibition of cathepsin D: inhibitor
Substance: pepstatin
